Experimental data: PMC11074299

How the values were obtained:
[1] = target: cFLIP^tDED H7G mutant (human) (UniProt O15519); experiment: crystal structure; FA^FuL_H9G-C8^FGLG-CF^H7G complex; proteins individually expressed in E. coli, complex co-purified by Ni-NTA and SEC (80 mM NaCl, 20 mM Tris pH 8.0); hanging drop, 20 °C; MR-SAD; 3.1 Å; one 1:5:4 complex per asymmetric unit; FADD DD not visible
[2] = target: wild-type cFLIP^tDED (human) (UniProt O15519); experiment: cryo-EM structure; FA^FuL-C8^FuL_FGLG_CADA-CF complex; Complex A without cross-linking (7.5 Å) and Complex B stabilised by GraFix, glutaraldehyde (3.7 Å); Casp-8 protease domain and FADD DD not visible

Row | stoichiometry N [1] | stoichiometry N [2] | Substance
1 | 4 | – | cFLIP^tDED H7G mutant (from UniProt O15519 1-181) (domain or fragment)
2 | – | 4 | wild-type cFLIP^tDED (from UniProt O15519 1-181) (domain or fragment)
